The source of these data is patent US20250084079A1, “COMPOSITIONS AND METHODS FOR INHIBITION OF RAS” (TheRas, Inc., priority 2022, published 2025).

Sequences of proteins named here, by UniProt entry; tags and fusion partners are left off. Residues count along the entry.
UniProt P01116, 1-169 isoform 2 limits assumed: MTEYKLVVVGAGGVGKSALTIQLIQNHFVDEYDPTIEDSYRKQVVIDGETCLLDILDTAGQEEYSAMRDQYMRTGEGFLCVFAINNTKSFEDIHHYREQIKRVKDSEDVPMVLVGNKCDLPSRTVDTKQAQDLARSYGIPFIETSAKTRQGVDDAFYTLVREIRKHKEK
UniProt P01116, 1-169 isoform 2 G12D limits assumed: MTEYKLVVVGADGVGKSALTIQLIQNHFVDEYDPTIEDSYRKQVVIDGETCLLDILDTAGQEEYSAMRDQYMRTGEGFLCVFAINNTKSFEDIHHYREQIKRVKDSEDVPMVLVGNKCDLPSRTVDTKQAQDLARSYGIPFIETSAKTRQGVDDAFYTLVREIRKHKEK
UniProt P01116, 1-169 isoform 2 G12V limits assumed: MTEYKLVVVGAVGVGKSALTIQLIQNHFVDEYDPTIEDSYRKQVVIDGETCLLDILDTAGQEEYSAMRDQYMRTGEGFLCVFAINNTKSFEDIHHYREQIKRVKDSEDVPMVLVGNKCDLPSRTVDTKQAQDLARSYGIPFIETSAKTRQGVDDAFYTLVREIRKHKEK
UniProt P01116, 1-169 isoform 2 G12D/Q25A limits assumed: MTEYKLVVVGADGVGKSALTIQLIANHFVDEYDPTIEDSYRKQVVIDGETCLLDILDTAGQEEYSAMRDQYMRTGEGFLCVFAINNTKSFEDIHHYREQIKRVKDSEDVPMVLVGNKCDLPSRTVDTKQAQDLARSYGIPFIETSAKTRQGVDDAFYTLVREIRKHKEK

pIC50: −log10 of the molar value.

The test system of experiment [1] is pERK in GP2d cells (KRAS G12D). Description: Cell-based pERK HTRF assay in GP2d cell. The settings on record: read-out: pERK-Gp2D-1 hr, 60 min incubation. The protocol: A pERK assay (Perkin Elmer) was used to determine the effectiveness of compounds in disrupting KRAS G12D protein/effector signaling in cells.
On Day 1, cells (GP2d) were seeded into 96-well plates at 3×10^4 cells/well in 80 μL complete growth media (DMEM, 10% FBS).
On Day 2, cells were treated with compounds at 0.25% DMSO. The source plate was created with compounds diluted in media at 5-fold the final assay concentration. The compounds were run in a 9-point concentration curve starting at 1 μM, with a half-log dilution between concentrations. 20 μL was transferred onto the cell plates (final volume in wells was 100 μL). Plates were harvested after 60 min incubation by aspirating media and adding kit-supplied 1× supplemented lysis buffer to all wells (50 μL per well). Plates were then placed on a plate shaker and incubated at 850 rpm for an additional 30 min.
Antibody mixture solution is prepared by diluting aliquoted d2 and Eu Cryptate antibodies 1:20 in kit supplied detection buffer, mix the diluted antibodies solutions (1:1 v:v). 4 μL of this solution is then added to a 384-well detection plate (Perkin Elmer; 6008230).
Samples were homogenized by pipetting up and down and then transferred (16 μL of cell lysates) from the 96-well cell culture plate to two wells of the HTRF 384-well detection plate containing the antibody solution. Plates were centrifuged (524 g for 1 min) and allowed to incubate between 4 and 24 h at room temperature. Maximum signal is reached after 4 h incubation time and remains stable over a period of 24 hours. Therefore, readings can be made between 4 and 24 h of incubation. Plates were centrifuged again (524 g for Imin), then analyzed on the EnVision plate reader using the following settings: Excitation 320 nm, Bandwidth 75 nm; Emission 615 nm, Bandwidth 85 nm; Gain 100%; Flashes 100; Lag 60 μs.
Background: In TR-FRET formats the signal depends on donor and acceptor labels being close together.

Experiment [2] has as its target Avi-KRAS G12D (1-169) GppNHp/RAF1 RBD-3xFLAG (52-151) (Homo sapiens, UniProt P01116, G12D). Description: RAS-effector PPI HTRF disruption assay, Raf1-GppNHp-KRAS G12D. The settings on record: read-out: Raf1-GppNHp-KRAS G12D disruption. How it is done:
(§1) A protein:protein interaction (PPI) Homogeneous Time Resolved Fluorescence (HTRF) assay was used to determine the effectiveness of compounds of the present disclosure in disrupting KRAS protein and effector (RAF1 or PIK3 CA) binding.
(§2) The HTRF assay used the following reagents and proteins: (i) 375 nM Avi-KRAS G12D/Q25A (1-169) GppNHp/3×FLAG-PI3KCA (157-299); (ii) 100 nM Avi-KRAS G12D (1-169) GppNHp/RAF1 RBD-3×FLAG (52-151); (iii) 50 nM Avi-KRAS G12V (1-169) GppNHp/RAF1 RBD-3×FLAG (52-151); (iv) 50 nM Avi-KRAS WT (1-169) GppNHp/RAF1 RBD-3×FLAG (52-151); and (v) 35 nM Avi-PI3K RBD CA-3×FLAG; Assay Buffer: 50 mM Tris pH 7.5, 100 mM NaCl, 5 mM MgCl2, 0.1% BSA, 0.01% Tween, 1 mM TCEP, 10% DMSO; Bead Buffer: 50 mM Tris pH 7.5, 0.01% Tween 20; Assay volume: 20 μL (384 well plate-low volume format); and Compound titration: 100-0.02 μM, 3× dilution series.
(§3) The HTRF assay employed the following protocol:
(§4) Compounds were dispensed in assay plate (384-well, Grenier Bione #784075) using Echo (model 555) with dose response settings: 200 nL final volume, titration from 100 μM as a 10-point dilution series. Protein mix was prepared in assay buffer, and dispensed on plates, 10 μL per well, then incubated for 1 h at room temperature, with 700 rpm shaking. Reagents mix was prepared and dispensed on plates, 10 μL per well, then incubated for 1 h at room temperature, with 700 rpm shaking.
(§5) Plates were analyzed on an Envision plate reader using the following setting: Excitation 320 nm, Bandwidth […]; Emission 615 nm, Bandwidth […], Gain 100%, Flashes 100, Lag 60 μs. Data was reported as percentage of activity, with DMSO as 100%. Data was plotted and analyzed using Prism 8. The SPR Kd, biochemical Raf1-KRAS G12D/G12V/WT-GppNHP and PI3KCA-KRAS G12D/Q25A-GppNHp disruption assay IC50 of selected compounds described herein are shown in Table 4.

Experiment [3] concerns the target Avi-KRAS G12V (1-169) GppNHp/RAF1 RBD-3xFLAG (52-151) (Homo sapiens, UniProt P01116, G12V). Description: RAS-effector PPI HTRF disruption assay, Raf1-GppNHp-KRAS G12V. Conditions: read-out: Raf1-GppNHp-KRAS G12V disruption. The protocol: as §1, §2, §3, §4, §5
In experiment [4] the target is Avi-KRAS WT (1-169) GppNHp/RAF1 RBD-3xFLAG (52-151) (Homo sapiens, UniProt P01116). Description: RAS-effector PPI HTRF disruption assay, Raf1-GppNHp-KRAS WT. The settings on record: read-out: Raf1-GppNHp-KRAS WT disruption. The protocol: as §1, §2, §3, §4, §5
The target of experiment [5] is Avi-KRAS G12D/Q25A (1-169) GppNHp/3xFLAG-PI3KCA (157-299) (Homo sapiens, UniProt P01116, G12D/Q25A). Description: RAS-effector PPI HTRF disruption assay, PI3KCA-GppNHp-KRAS G12D/Q25A. Conditions: read-out: PI3KCA-GppNHp-KRAS G12D/Q25A disruption. The protocol: as §1, §2, §3
Compounds were dispensed in assay plate (384-well, Grenier Bione #784075) using Echo (model 555) with dose response settings: 200 nL final volume, titration from 100 μM as a 10-point dilution series. […]
Plates were analyzed on an Envision plate reader using the following setting: Excitation 320 nm, Bandwidth […]; Emission 615 nm, Bandwidth […], Gain 100%, Flashes 100, Lag 60 μs. […] Data was plotted and analyzed using Prism 8. […]

With `N#Cc1c(N)sc2c(F)ccc(-c3c(C(F)(F)F)cc4c(O[C@H]5CNC[C@H]5F)nc(OC[C@@]56CCCN5C[C@H](F)C6)nc4c3F)c12`, the pIC50 in experiment [1] is greater than 7.00; in experiment [2], 6.00 to 7.00; in experiment [3], 5.00 to 6.00; in experiment [4] it was 6.00 to 7.00.

As for `N#Cc1c(N)sc2c(F)ccc(-c3c(C(F)(F)F)cc4c(O[C@@H]5CCC6(CNC6)C5)nc(OC[C@@]56CCCN5C[C@H](F)C6)nc4c3F)c12` (atropisomer, axis not shown) [Compound 85], the pIC50 in experiment [1] is less than 6.00; in experiment [2] it was less than 5.00; in experiment [3] it was less than 5.00; in experiment [4], less than 5.00.

Regarding `N#Cc1c(N)sc2c(F)ccc(-c3c(Cl)cc4c(O[C@H]5CCN[C@H]5CO)nc(OC[C@@]56CCCN5C[C@H](F)C6)nc4c3F)c12`, the pIC50 is less than 6.00 in experiment [1], less than 5.00 in experiment [2], less than 5.00 in experiment [3] and less than 5.00 in experiment [4].

`COC[C@@H]1C[C@@H](Oc2nc(OC[C@@]34CCCN3C[C@H](F)C4)nc3c(F)c(-c4ccc(F)c5sc(N)c(C#N)c45)c(C(F)(F)F)cc23)CN1` (atropisomer, axis not shown) [Compound 84]: the pIC50 in experiment [1] is 6.00 to 7.00; in experiment [2] it was less than 5.00; in experiment [3], less than 5.00; in experiment [4] it was less than 5.00.

Turning to `N#Cc1c(N)sc2c(F)ccc(-c3ncc4c(O[C@H]5CNC[C@@H]5F)nc(OC[C@@]56CCCN5C[C@H](F)C6)nc4c3F)c12`, the pIC50 in experiment [1] was less than 6.00; in experiment [2], less than 5.00; in experiment [5] it was less than 5.00; in experiment [3] it was less than 5.00; in experiment [4], less than 5.00.
